The list shows a part of the results, in another mix than the full data. Some salts or complexes appear as unconnected parts, following the source record. A structure can be active in one record and inactive in another. Calls of active or inactive are those of the source. Rule as the data show it: active = growth inhibition above about 70%; inactive = the rest.

The assay in a line: NCI Yeast Anticancer Drug Screen. Data for the wt1 strain (AID 149).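 Also: 0% = growth of vehicle-treated wt1 cultures.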 To be noted: S. cerevisiae wt1 strain (SPY 50644) growth inhibition, active compounds read high. The protocol:
Growth inhibition of yeast strains with defined genetic alterations is measured as a screen for potential anti-cancer activity. Selected strains with alterations in DNA damage repair or cell cycle control were exposed to compounds and growth inhibition was measured relative to vehicle treated controls. The strain used in this assay is wt1

Consider `Nc1ccccc1.O=[N+]([O-])c1cc([N+](=O)[O-])cc([N+](=O)[O-])c1`, for which the growth inhibition is inactive: -1% (at 1.2 µM); inactive: 1% (at 3.7 µM); inactive: 14% (at 11.0 µM); active: 99% (at 33.0 µM); active: 99% (at 100.0 µM).
As to `O=[N+]([O-])C(F)(COCC(O)CO)[N+](=O)[O-]` (stereo not given), the growth inhibition runs as follows: (at 1.2 µM) inactive: -7%; (at 3.7 µM) inactive: -7%; (at 11.0 µM) inactive: 3%; (at 33.0 µM) inactive: 37%; (at 100.0 µM) active: 79%.
As for `Cc1ccc2ccc3ccc4ccccc4c3c2c1.O=C1c2cc([N+](=O)[O-])ccc2-c2c1cc([N+](=O)[O-])cc2[N+](=O)[O-]`, the growth inhibition (at 1.2 µM) was inactive: 0%; the growth inhibition (at 3.7 µM) is inactive: -15%; the growth inhibition (at 11.0 µM) was inactive: 0%; the growth inhibition (at 33.0 µM) is inactive: 3%; the growth inhibition (at 100.0 µM) was inactive: 7%.
`Cc1cc2ccccc2cc1C.O=[N+]([O-])c1cc([N+](=O)[O-])cc([N+](=O)[O-])c1`: the growth inhibition is inactive: 1% (at 1.2 µM); inactive: 4% (at 3.7 µM); inactive: 2% (at 11.0 µM); inactive: 7% (at 33.0 µM); inactive: 58% (at 100.0 µM).
For `[Au+].[N-]=[N+]=N.c1ccc([PH+](c2ccccc2)c2ccccc2)cc1`, in that order: inactive: 15%, active: 96%, active: 99%, active: 97% and active: 94%.
For `COc1ccccc1N.O=[N+]([O-])c1cc([N+](=O)[O-])cc([N+](=O)[O-])c1`, in that order: inactive: -2%, inactive: 2%, inactive: 18%, active: 99% and active: 99%.
For `[Au].[C-]#N.[C-]#N`, in that order: inactive: 16%, inactive: 7%, inactive: 7%, inactive: 5% and inactive: 16%.
Turning to `Cc1c2ccccc2cc2ccccc12.O=[N+]([O-])c1cc([N+](=O)[O-])c(O)c([N+](=O)[O-])c1`, the growth inhibition is inactive: -2% (at 1.2 µM); inactive: 0% (at 3.7 µM); inactive: 5% (at 11.0 µM); inactive: 26% (at 33.0 µM); active: 87% (at 100.0 µM).

The values are drawn from PubChem BioAssay (NCI).
